Experimental findings from US9573961B2, “Inhibitors of the renal outer medullary potassium channel” (Merck Sharp & Dohme Corp., priority 2012, dated 2017) are described below.

Chains of the proteins cited; added tags and fusions are not shown. Lines headed by an entry give the natural chain unless they say otherwise; changes in a name come on top.
UniProt P48048: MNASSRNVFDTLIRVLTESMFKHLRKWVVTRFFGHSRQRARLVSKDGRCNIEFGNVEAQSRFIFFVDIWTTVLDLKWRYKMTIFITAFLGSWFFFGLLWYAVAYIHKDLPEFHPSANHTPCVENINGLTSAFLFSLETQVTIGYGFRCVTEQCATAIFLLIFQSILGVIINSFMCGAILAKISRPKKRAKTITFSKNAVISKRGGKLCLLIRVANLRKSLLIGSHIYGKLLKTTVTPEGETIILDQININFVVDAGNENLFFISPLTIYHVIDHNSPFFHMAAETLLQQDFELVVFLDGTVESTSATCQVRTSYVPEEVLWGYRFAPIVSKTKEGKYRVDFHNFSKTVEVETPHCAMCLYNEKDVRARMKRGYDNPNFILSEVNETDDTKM

One experiment addresses hROMK (hKir1.1) (Homo sapiens (Human), UniProt P48048). Nature of the experiment: Thallium Flux Assay (ROMK channel functional thallium flux, FLIPR-Tetra). The format is cell-based. As to conditions: HEK293 cells stably expressing hROMK (hKir1.1). The procedure: Cell Culture Conditions—HEK293 cells stably expressing hROMK (hKir1.1) were grown at 37° C. in a 10% CO2 humidified incubator in complete growth media: Dulbecco's Modified Eagle Medium supplemented with non-essential amino acids, Penicillin/Streptomycin/Glutamine, G418 and FBS. At >80% confluency, aspirate the media from the flask and rinse with 10 mL Calcium/Magnesium-free PBS. […] To dislodge the cell, gently bang the side of the flask with your hand. Triturate the cells completely and then transfer the cells to 25 mL complete media. Centrifuge at 1,500 rpm for 6 min followed by resuspension in complete growth media and determine cell concentration. […] Under ideal growth conditions and appropriate tissue culture practices, this cell line is stable for 40-45 passages.
FluxOR Kit Components (Invitrogen F10017) • FluxOR™ Reagent (Component A) • FluxOR™ Assay Buffer (Component B)—10× Concentrate • PowerLoad™ Concentrate (Component C)—100× Concentrate • Probenecid (Component D)—Lyophilized sample is kept at −20° C. Water soluble, 100× after solubilization in 1 mL water. […] Store at 4° C. • Thallium sulfate (Tl2SO4) Concentrate (Component G)—50 mM in water. Store at 4° C. • DMSO (dimethyl sulfoxide, Component H)—1 mL (100%)
Can be stored at room temperature • Stimulant Buffer (prepared at 5× final concentration in 1× FluxOR™ Chloride-Free Buffer): 7.5 mM Thallium sulfate and 0.75 mM Potassium sulfate (to give a final assay concentration of 3 mM Thallium/0.3 mM Potassium). Store at 4° C. when not in use. If kept sterile, this solution is good for months.
Assay Protocol—The ROMK channel functional thallium flux assay is performed in 384 wells, using the FLIPR-Tetra instrument. HEK-hKir1.1 cells are seeded in Poly-D-Lysine microplates and kept in a 37° C.-10% CO2 incubator overnight. On the day of the experiment, the growth media is replaced with the FluxOR™ reagent loading buffer and incubated, protected from light, at ambient temperature (23-25° C.) for 90 min. The loading buffer is replaced with assay buffer±test compound followed by 30 min incubation at ambient temperature, where the Thallium/Potassium stimulant is added to the microplate.
Step Protocol • 1. Seed HEK-hKir1.1 cells (50 μl at 20,000 cells/well) in 384-well PDL coated Microplates • 2. Allow cells to adhere overnight in humidified 37° C./10% CO2 incubator • 3. Completely remove cell growth media from microplate and replace with 25 μl loading buffer • 4. Incubate Microplate at room temperature, protected form light, for 90 min • 5. Remove loading buffer and replace with 25 μl 1× Assay Buffer±test compound. • 6. Incubate microplate at room temperature, protected from light, for 30 min • 7. […] Excitation=400 nm, Emission=460 & 580 nm. Collect data for ˜10 min.
Data Calculation—The fluorescence intensity of wells containing 3 μM of a standard control ROMK inhibitor of the present invention is used to define the ROMK-sensitive component of thallium flux. Fluorescence in the presence of test compounds is normalized to control values to provide % fluorescence change.

Another experiment concerns the target Kir1.1 (ROMK1) (Homo sapiens (Human), UniProt P48048). Nature of the experiment: Electrophysiology Assay (whole cell voltage clamp, IonWorks Quattro). The format is cell-based. As to conditions: Chinese hamster ovary cells stably expressing Kir1.1; block during voltage step to 0 mV. The procedure: Chinese hamster ovary cells stably expressing Kir1.1 channels were maintained in T-75 flasks in cell culture media in a humidified 10% CO2 incubator at 37° C. Prior to an experiment, Kir1.1 expression was induced by overnight incubation with 1 mM sodium butyrate. […] After centrifugation, the cell pellet was resuspended in approximately 4.0 mL of bath solution and placed in the IonWorks instrument. The intracellular solution consisted of (in mM): 80 K gluconate, 40 KCl, 20 KF, 3.2 MgCl2, 3 EGTA, 5 Hepes, pH 7.4. Electrical access to the cytoplasm was achieved by perforation in 0.13 mg/mL amphotericin B for 4 min. […] Voltage protocols and current recordings were performed using the IonWorks HT software/hardware system. Currents were sampled at 1 kHz. No correction for liquid junction potentials was used. The test pulse, consisting of a 100 ms step to 0 mV from a holding potential of −70 mV, followed by a 100 ms voltage ramp from −70 mV to +70 mV, was applied before and after a 6 min compound incubation period. Test compounds were prepared by diluting DMSO stock solutions into the bath solution at 3× the final concentration and placed in the instrument in 96-well polypropylene plates. Current amplitudes were measured using the IonWorks software.
For orientation: Patch clamp records ionic current or voltage across a cell membrane.

The IC50 is the midpoint of a concentration-inhibition curve. Read a high IC50 as lower potency. For the molecule `Cc1c([C@H]2CN3CCN(C(=O)C4CCCc5cc(-n6cnnn6)ccc54)C[C@@H]3CO2)ccc(F)c1C#N` (single isomer, unassigned) [Example 95], it took 580 nM to reach half-maximal inhibition on hROMK (hKir1.1) (IC50).

For `Cc1c([C@@H]2CN3CCN(C(=O)C4CCCc5cc(-n6cnnn6)ccc54)C[C@H]3CO2)ccc(F)c1C#N` (single isomer, unassigned) [Example 92], the IC50 against hROMK (hKir1.1) is 740 nM; against Kir1.1 (ROMK1), 300 nM.

For `Cc1c([C@@H]2CN3CCN(C(=O)C4CCCc5cc(-n6cnnn6)ccc54)C[C@H]3CO2)ccc(F)c1C#N` (single isomer, unassigned) [Example 91], the IC50 against hROMK (hKir1.1) is 190 nM; at Kir1.1 (ROMK1), 390 nM.

Regarding `C[C@@H]1Cc2cc([C@@H]3CN4CCN(C(=O)C5CCc6cc(-n7cnnn7)ccc65)C[C@H]4CO3)ccc2C(=O)O1` (single isomer, unassigned) [Example 85], the IC50 on Kir1.1 (ROMK1) came out at 200 nM.

Turning to `Cc1c([C@@H]2CN3CCN(C(=O)C4CCCc5cc(-n6cnnn6)ccc54)C[C@@H]3CO2)ccc(F)c1C#N` (single isomer, unassigned) [Example 94], the IC50 against hROMK (hKir1.1) turned out to be 520 nM; against Kir1.1 (ROMK1), 360 nM.

In the case of `O=C1OCCc2cc([C@@H]3CN4CCN(C(=O)C5CCc6cc(-n7cnnn7)ccc65)C[C@H]4CO3)ccc21` (single isomer, unassigned) [Example 87], it took 200 nM to reach half-maximal inhibition at Kir1.1 (ROMK1) (IC50).

Molecule `O=C1OCCc2cc([C@@H]3CN4CCN(C(=O)C5CCc6cc(-n7cnnn7)ccc65)C[C@H]4CO3)ccc21` (single isomer, unassigned) [Example 86] gave an IC50 against Kir1.1 (ROMK1) of 340 nM.

On to `Cc1c([C@H]2CN3CCN(C(=O)C4CCCc5cc(-n6cnnn6)ccc54)C[C@H]3CO2)ccc(F)c1C#N` (single isomer, unassigned) [Example 93], for which the IC50 came out at 270 nM on hROMK (hKir1.1) and 390 nM against Kir1.1 (ROMK1).

Consider `C[C@@H]1Cc2cc([C@@H]3CN4CCN(C(=O)C5CCc6cc(-n7cnnn7)ccc65)C[C@H]4CO3)ccc2C(=O)O1` (single isomer, unassigned) [Example 84], for which the 50% inhibitory concentration (IC50) against Kir1.1 (ROMK1) was determined as 240 nM.

For the molecule `O=C1OCCc2cc([C@@H]3CN4CCN(C(=O)C5CCc6cc(-n7cnnn7)ccc65)C[C@H]4CO3)ccc21` (stereo partly drawn) [Example 22, 6-[(3R,9aS)-8-{[5-(1H-tetrazol-1-yl)-2,3-dihydro-1H-inden-1-yl]carbonyl}octahydropyrazino[2,1-c][1,4]oxazin-3-yl]-3,4-dihydro-1H-isochromen-1-one], the IC50 amounted to 140 nM against hROMK (hKir1.1) and 130 nM at Kir1.1 (ROMK1).
